Reference: US20080146500A1 (published 2008)

Biological target: T1, human VPAC2 receptor (human, UniProt P41587 24-438)
T1 construct: whole, on cells
T1 sequence (looked up): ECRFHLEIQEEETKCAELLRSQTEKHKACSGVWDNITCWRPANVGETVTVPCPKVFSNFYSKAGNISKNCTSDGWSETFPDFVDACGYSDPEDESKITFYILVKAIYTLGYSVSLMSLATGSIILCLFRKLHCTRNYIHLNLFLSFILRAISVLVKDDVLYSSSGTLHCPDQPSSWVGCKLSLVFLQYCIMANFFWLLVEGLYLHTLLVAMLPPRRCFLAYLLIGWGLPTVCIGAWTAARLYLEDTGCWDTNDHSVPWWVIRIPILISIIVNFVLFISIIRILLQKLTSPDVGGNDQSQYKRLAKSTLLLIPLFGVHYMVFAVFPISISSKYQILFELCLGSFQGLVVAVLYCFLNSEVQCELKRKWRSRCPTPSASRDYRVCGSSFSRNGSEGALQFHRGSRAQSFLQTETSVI
Assay: filter binding, VPAC2 membranes, 125I-VIP tracer

Question: How did the IC50 turn out when HSDGIFTDSYSRYRKQMAVKKYLAAVL (ligand, not fully specified) [PACAP-27 (pituitary adenylate cyclase-activating polypeptide, 27 amino acids)] was run?
Answer: Its IC50 is 2.52 nM.
